## Binding of CDR-mutated scFvs to a peptide of the spike HR2 region

Antigen: PDVDLGDISGINAS, a 14-residue peptide of the SARS-CoV-2 spike HR2 region.

The variants keep the heavy chain, the linker and the frameworks of Ab-14 (scFv order VH, a 15-residue (Gly4Ser)3 linker, VL).
VH: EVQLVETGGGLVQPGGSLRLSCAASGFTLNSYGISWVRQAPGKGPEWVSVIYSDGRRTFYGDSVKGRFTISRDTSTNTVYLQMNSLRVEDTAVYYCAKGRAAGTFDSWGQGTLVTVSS
VL: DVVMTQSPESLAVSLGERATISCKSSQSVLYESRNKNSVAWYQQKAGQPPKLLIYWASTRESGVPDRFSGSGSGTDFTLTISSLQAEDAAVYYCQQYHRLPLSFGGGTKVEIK

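The parent was found by panning a naive human phage display library on the peptide. This is the validation round: designs drawn from the data on random variants, tested in the same kind of assay. Group labels follow the data file (Ctrl: baseline library sampled from a position-specific scoring matrix, with some repeated check sequences; GP: Gaussian process model; HC: hill climbing; Gen: genetic algorithm; Gibbs: Gibbs sampling; a sequence that several methods proposed may carry one label only). The assay is AlphaSeq: two haploid yeast populations carry antibody and antigen on their surface. After mating in shaken culture at 30 °C for 16 h, diploids were selected and their barcode pairs sequenced. Read counts were normalised to the haploid input and turned into Kd by a linear fit to BCL2-family pairs of known affinity, for each replicate. Each pool was mated in six replicate cultures.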

Sequences are complete VL domains.
This list holds designs with at most six substitutions.
Values are apparent Kd, the geometric mean of the replicates that gave a signal; lower means stronger binding.
An entry "nd" has no value in the source: the pair was not observed among the diploids in any replicate. This suggests poor binding but is not conclusive.

The variant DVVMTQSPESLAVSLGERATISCKFSDSVLLESRVKNSVAWYQQKAGQPPKLLIYNASTRESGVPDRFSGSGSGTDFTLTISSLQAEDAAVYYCQQYHRLPLSFGGGTKVEIK [GP_HC] gave 690 pM (6 of 6 replicates).
The variant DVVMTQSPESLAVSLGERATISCKQSQSVSYEWRNKNSVAWYQQKAGQPPKLLIYDASTRESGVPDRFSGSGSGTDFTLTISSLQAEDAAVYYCQQYHRLPLSFGGGTKVEIK [GP_HC] gave 3.0 nM (6 of 6 replicates).
The variant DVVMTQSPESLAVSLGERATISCKSSQSVLYESRNKNPVAWYQQKAGQPPKLLIYEASTRESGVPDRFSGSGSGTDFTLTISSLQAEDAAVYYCQQYHRLPLSFGGGTKVEIK [Ctrl] gave 4.9 nM (6 of 6 replicates).
The variant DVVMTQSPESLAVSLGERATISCKSSQSKLYESRNKNSVAWYQQKAGQPPKLLIYWASTRESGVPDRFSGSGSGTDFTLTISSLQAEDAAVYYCQQYHRLPLSFGGGTKVEIK [Ctrl] gave 290 nM (6 of 6 replicates).
The variant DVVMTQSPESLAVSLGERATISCKISQSVLGESRNKNSVAWYQQKAGQPPKLLIYNASTRESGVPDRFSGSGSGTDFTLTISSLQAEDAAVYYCQQYHRLPLSFGGGTKVEIK [GP_Gen] gave 340 pM (6 of 6 replicates).
The variant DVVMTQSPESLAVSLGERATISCKSSQSVDYESRNKNSVAWYQQKAGQPPKLLIYWASTRESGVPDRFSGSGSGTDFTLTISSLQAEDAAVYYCQQYHRLPLSFGGGTKVEIK [Ctrl] gave 200 nM (6 of 6 replicates).
The variant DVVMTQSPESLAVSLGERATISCKLSQSDGYESRNKNSVAWYQQKAGQPPKLLIYNASTRSHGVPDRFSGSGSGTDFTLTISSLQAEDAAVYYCQQYHRLPLSFGGGTKVEIK [GP_Gibbs] gave 1.4 nM (6 of 6 replicates).
The variant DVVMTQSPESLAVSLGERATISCKLRQSTLYESRNKNSVAWYQQKAGQPPKLLIYQASTRESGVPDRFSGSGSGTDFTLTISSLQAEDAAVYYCQQYHRLPLIFGGGTKVEIK [GP_HC] gave 1.8 nM (6 of 6 replicates).
The variant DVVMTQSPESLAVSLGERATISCKLMQSVLYESRNKNSVAWYQQKAGQPPKLLIYNASQRMSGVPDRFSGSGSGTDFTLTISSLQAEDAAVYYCQQYHRLPLSFGGGTKVEIK [GP_Gen] gave 1.1 nM (6 of 6 replicates).
The variant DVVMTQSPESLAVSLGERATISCKLVQSVLYESRNKNSVAWYQQKAGQPPKLLIYGASTRESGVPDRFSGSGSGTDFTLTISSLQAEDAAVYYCQQYHRLPLSFGGGTKVEIK [GP_Gen] gave 1.5 nM (6 of 6 replicates).
The variant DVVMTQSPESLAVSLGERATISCKFSQSVLYESRNKNSVAWYQQKAGQPPKLLIYNASKRESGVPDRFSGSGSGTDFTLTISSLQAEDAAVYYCQQYHRLPLSFGGGTKVEIK [GP_Gen] gave 710 pM (6 of 6 replicates).
The variant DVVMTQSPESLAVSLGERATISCKLSMSVLYESRNKNSVAWYQQKAGQPPKLLIYNASTREQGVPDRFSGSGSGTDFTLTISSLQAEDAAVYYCQQYHRLPLSFGGGTKVEIK [GP_Gen] gave 2.1 nM (6 of 6 replicates).
The variant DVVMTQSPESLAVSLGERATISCKQSQSVGYEWRNKNSVAWYQQKAGQPPKLLIYDASTRESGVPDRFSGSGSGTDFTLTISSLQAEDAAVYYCQQYHRLPLSFGGGTKVEIK [GP_HC] gave 42 nM (6 of 6 replicates).
The variant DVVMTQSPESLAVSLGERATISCKSSQSVLYESRNFWSVAWYQQKAGQPPKLLIYNASTRESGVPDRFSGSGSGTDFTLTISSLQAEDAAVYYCQQYHRLPLSFGGGTKVEIK [GP_HC] gave nd (0 of 6 replicates).

A selection of 2 entries from above:

VL	group	Kd (apparent)	replicates with signal
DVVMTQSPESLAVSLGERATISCKSSQSKLYESRNKNSVAWYQQKAGQPPKLLIYWASTRESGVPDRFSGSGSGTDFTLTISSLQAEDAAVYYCQQYHRLPLSFGGGTKVEIK	Ctrl	290 nM	6 of 6
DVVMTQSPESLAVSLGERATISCKSSQSVLYESRNFWSVAWYQQKAGQPPKLLIYNASTRESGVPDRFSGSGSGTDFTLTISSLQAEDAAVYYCQQYHRLPLSFGGGTKVEIK	GP_HC	nd	0 of 6

In the paper, a design with two or fewer of six values counts as a poor binder.
Nonspecific signal, from three strains lacking the peptide, appeared in 4% of pairings of all light chain designs, centred on 430 nM (5% of these signals below 38 nM); values are not corrected for it.
A sequence measured in both rounds can read differently, since the two assays cover different ranges.

The measurements come from Li et al. 2023 (doi:10.1038/s41467-023-39022-2) through the FLAb antibody collection.